The text below walks through data of ChEMBL document CHEMBL1139293 (Bioorg Med Chem Lett, 2009).

A short description of the assay: Selectivity for alpha4beta2 nAChR over alpha3beta4 nAChR.

The structures appear in SMILES notation.

In the case of `CNC(=O)OCCC(C)N(C)C` (stereo unspecified), the Selectivity ratio was found to be 770.
